Results on four compounds are retold here after patent publication US20250084097A1, “MACROCYCLIC AMIDE COMPOUNDS AND APPLICATION THEREOF” (Medshine Discovery Inc., priority 2021, published 2025).

Amino acid sequences for entries named in this document (tags omitted).
UniProt P00533, whole entry T790M/C797S/L858R: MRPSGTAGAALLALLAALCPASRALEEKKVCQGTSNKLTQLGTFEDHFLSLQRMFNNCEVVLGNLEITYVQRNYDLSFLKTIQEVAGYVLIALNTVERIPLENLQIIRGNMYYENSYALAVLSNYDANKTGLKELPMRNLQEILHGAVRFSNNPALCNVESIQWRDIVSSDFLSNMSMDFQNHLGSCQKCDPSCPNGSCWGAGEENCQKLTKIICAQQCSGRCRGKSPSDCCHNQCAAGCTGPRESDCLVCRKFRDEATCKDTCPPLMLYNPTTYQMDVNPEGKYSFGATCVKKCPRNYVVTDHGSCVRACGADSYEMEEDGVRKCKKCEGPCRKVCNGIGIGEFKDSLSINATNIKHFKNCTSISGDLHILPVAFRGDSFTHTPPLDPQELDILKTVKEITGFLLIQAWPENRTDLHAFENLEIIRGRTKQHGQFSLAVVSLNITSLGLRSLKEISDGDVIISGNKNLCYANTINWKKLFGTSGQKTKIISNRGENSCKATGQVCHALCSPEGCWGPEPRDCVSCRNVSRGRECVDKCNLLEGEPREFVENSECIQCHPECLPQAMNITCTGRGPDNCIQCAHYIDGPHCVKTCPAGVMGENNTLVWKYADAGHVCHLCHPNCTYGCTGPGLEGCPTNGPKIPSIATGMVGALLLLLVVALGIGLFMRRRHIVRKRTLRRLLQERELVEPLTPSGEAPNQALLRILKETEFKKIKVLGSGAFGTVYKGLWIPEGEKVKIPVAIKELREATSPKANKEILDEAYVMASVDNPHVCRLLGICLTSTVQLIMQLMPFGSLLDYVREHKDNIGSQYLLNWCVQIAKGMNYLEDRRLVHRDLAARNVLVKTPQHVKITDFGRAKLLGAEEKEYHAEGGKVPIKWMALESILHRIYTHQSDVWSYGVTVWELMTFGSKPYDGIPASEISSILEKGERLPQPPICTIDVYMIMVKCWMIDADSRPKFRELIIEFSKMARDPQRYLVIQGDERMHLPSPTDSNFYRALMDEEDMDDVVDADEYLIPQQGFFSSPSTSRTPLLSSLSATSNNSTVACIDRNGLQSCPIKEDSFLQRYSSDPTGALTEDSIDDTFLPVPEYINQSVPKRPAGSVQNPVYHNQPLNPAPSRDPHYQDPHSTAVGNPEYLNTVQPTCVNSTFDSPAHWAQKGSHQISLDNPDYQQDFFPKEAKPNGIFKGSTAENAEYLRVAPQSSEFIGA

This assay has as its target Ba/F3-FL-EGFR (L858R/T790M/C797S) (Homo sapiens, UniProt P00533, T790M/C797S/L858R, cells depend on it). The experiment in a line: Cell proliferation inhibition, CellTiter-Glo. As to conditions: read-out: Cell half-maximal inhibition concentration IC50 Ba/F3-FL-EGFR (L858R/T790M/C797S), 72 hours. The class given is cell-based.
For the compound `Cc1cc2cc(n1)-c1cnn(C)c1OCCC[C@@H](C)CN1C(=NC2=O)Nc2ccc(N=S3(=O)CCOCC3)c(Cl)c21`, the GI50 was determined as 8.6 nM. The figure for `Cc1cc2cc(n1)-c1cnn(C)c1OCCC[C@@H](C)CN1C(=NC2=O)Nc2ccc(N=S3(=O)CCCC3)c(Cl)c21` is 4.6 nM. For `Cc1cc2cc(n1)-c1cnn(C)c1OCCC[C@@H](C)CN1C(=NC2=O)Nc2cc(Cl)c(N=S3(=O)CCCC3)cc21` the value was 6.4 nM; for `Cc1cc2cc(n1)-c1cnn(C)c1OCCC[C@@H](C)CN1C(=NC2=O)Nc2cc(Cl)c(N=S3(=O)CCOCC3)cc21`, 6.5 nM.
